# Earlier results in patent US7604939B2, “Methods of identifying active BRM expression-promoting HDAC inhibitors” (The Regents of the University of Michigan, priority 2005, dated 2009).
# Protein sequences, listed by entry. Tags and fused reporters are not part of them.
# UniProt Q13547, whole entry: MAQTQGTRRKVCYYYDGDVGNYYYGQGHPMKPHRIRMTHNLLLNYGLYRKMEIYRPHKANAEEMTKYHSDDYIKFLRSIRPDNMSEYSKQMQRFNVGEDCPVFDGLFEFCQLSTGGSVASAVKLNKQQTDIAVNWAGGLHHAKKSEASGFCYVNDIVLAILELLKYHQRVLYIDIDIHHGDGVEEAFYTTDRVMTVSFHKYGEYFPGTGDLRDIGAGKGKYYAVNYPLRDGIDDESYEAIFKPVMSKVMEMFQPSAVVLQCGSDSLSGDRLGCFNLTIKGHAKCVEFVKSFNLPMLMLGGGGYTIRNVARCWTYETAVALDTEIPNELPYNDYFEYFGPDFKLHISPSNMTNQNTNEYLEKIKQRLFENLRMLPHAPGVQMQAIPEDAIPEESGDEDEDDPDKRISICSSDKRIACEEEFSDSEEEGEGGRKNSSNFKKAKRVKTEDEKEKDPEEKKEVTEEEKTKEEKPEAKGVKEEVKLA
# What was measured:
# [1] = target: HDAC1 (Homo sapiens, UniProt Q13547); conditions: Class 1 HDAC; cited from earlier work
# [2] = target: T1, HDAC8 (Homo sapiens, UniProt Q9BY41); conditions: Class 1 HDAC; cited from earlier work
# T1 sequence (Q9BY41 1-377): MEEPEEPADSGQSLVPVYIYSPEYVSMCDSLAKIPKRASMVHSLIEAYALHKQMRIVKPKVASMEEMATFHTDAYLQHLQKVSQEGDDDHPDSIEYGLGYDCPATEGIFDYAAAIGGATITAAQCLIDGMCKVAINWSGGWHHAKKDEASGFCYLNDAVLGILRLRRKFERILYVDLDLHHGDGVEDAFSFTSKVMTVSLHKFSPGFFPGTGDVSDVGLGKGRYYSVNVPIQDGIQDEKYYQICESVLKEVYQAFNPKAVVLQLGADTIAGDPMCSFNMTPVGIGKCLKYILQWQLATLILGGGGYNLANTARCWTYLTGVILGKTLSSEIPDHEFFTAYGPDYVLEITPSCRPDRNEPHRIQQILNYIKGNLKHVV
smiles,measurement,setting,value
Nc1ccccc1NC(=O)c1ccc(CNC(=O)OCc2cccnc2)cc1 [MS-275],Sensitivity of HDAC1 to the inhibitor,[1],Yes
same,Sensitivity of HDAC8 to the inhibitor,[2],Yes
